Test results published in patent US9233979B2, “Compounds that are ERK inhibitors” (Merck Sharp & Dohme Corp., priority 2012, dated 2016).
Read-outs that look alike come from different tables or passages of the source.

The chains behind the UniProt entries cited, without tags or fusion partners.
UniProt P28482, whole entry: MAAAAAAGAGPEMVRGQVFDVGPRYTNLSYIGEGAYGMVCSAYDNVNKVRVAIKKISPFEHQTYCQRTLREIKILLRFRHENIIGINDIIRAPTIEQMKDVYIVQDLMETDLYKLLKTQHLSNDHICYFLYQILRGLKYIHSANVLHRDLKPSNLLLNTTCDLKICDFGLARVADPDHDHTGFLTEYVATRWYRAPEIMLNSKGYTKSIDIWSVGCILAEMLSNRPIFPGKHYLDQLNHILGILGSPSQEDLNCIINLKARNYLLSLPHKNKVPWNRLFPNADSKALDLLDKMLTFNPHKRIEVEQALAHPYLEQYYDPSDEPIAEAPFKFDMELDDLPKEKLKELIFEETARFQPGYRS

Target: phosphorylated active hERK2 enzyme (Homo sapiens (Human), UniProt P28482)
Test: Active Human ERK2 (hERK2) Activity Assay (IMAP-FP)
Type: biochemical
Details: 10 point titration, read-out: AERK2 IC50
Experimental: Assays Active Human ERK2 (hERK2) Activity Assay:
Activated ERK2 activity was determined in an IMAP-FP assay (Molecular Devices). […] The final reaction in each well of 25 μL consists of 0.5 nM hERK2, 900 nM unlabeled peptide, 80 nM labeled-peptide, and 30 μM ATP. Phosphorylation reactions were allowed to proceed for 60 minutes and were immediately quenched by the addition of 60 μL IMAP detection beads (1:1000 dilutions) in IMAP binding buffer (Molecular Devices) with 24 mM NaCl. Plates were read on EnVision reader after 60 minutes binding equilibration using Fluorescence Polarization protocol (Perkin Elmer).

[1] = Table 6, 0.5 nM hERK2, 30 μM ATP
[2] = Table 5, 0.5 nM hERK2, 30 μM ATP

IC50 [2] | SMILES | IC50 [1]
– | C[C@@H](O)[C@@H](NC(=O)Nc1cc2[nH]nc(N3CCOCC3)c2cn1)c1ccccc1 [Example 96, 1-[(1S,2R)-2-hydroxy-1-phenylpropyl]-3-(3-morpholin-4-yl-1H-pyrazolo[4,3-c]-pyridin-6-yl)urea] | 300 pM
1450 pM | COC[C@@H](NC(=O)Nc1cc2[nH]nc(N3CCO[C@H](C)C3)c2cn1)c1ccccc1 [Example 39, 1-[(1S)-2-Methoxy-1-phenylethyl]-3-{3-[(2R)-2-methylmorpholin-4-yl]-1H-pyrazolo[4,3-c]pyridin-6-yl}urea] | –
630 pM | COC[C@@H](NC(=O)Nc1cc2[nH]nc(N3CCO[C@@H](C)C3)c2cn1)c1ccccc1 [Example 40, 1-[(1S)-2-methoxy-1-phenylethyl]-3-{3-[(2S)-2-methylmorpholin-4-yl]-1H-pyrazolo[4,3-c]pyridin-6-yl}urea] | –
– | CC(O)[C@@H](NC(=O)Nc1cc2[nH]nc(N3CCOCC3)c2cn1)c1ccccc1 (stereo partly drawn) [Example 455, 1-[(1S)-2-hydroxy-1-phenylpropyl]-3-(3-morpholin-4-yl-1H-pyrazolo[4,3-c]pyridin-6-yl)urea] | 300 pM
